One compound from patent US20240277700A1, “COMPOSITIONS AND METHODS FOR TREATING AND PREVENTING INTERSTITIAL CYSTITIS” (Hista RX LLC, priority 2021, published 2024) can be followed below.

The experiment deals with patient with bladder pain and overactive bladder. The note with it: person; prior medications and procedures.

The structures appear in SMILES notation.

`CCOC(=O)N1CCC(=C2c3ccc(Cl)cc3CCc3cccnc32)CC1` [Loratidine]: the “symptomatic relief by prior treatment” value is “had not been achieved”.
